Experimental data: US8815891B2, “Tricyclic derivative or pharmaceutically acceptable salts thereof, preparation method thereof, and pharmaceutical composition containing the same” (Je Il Pharmaceutical Co., Ltd., priority 2008, dated 2014)
Where a name gives a salt, the structure may show the parent alone.

The chains behind the UniProt entries cited, without tags or fusion partners.
UniProt Q9R152, whole entry: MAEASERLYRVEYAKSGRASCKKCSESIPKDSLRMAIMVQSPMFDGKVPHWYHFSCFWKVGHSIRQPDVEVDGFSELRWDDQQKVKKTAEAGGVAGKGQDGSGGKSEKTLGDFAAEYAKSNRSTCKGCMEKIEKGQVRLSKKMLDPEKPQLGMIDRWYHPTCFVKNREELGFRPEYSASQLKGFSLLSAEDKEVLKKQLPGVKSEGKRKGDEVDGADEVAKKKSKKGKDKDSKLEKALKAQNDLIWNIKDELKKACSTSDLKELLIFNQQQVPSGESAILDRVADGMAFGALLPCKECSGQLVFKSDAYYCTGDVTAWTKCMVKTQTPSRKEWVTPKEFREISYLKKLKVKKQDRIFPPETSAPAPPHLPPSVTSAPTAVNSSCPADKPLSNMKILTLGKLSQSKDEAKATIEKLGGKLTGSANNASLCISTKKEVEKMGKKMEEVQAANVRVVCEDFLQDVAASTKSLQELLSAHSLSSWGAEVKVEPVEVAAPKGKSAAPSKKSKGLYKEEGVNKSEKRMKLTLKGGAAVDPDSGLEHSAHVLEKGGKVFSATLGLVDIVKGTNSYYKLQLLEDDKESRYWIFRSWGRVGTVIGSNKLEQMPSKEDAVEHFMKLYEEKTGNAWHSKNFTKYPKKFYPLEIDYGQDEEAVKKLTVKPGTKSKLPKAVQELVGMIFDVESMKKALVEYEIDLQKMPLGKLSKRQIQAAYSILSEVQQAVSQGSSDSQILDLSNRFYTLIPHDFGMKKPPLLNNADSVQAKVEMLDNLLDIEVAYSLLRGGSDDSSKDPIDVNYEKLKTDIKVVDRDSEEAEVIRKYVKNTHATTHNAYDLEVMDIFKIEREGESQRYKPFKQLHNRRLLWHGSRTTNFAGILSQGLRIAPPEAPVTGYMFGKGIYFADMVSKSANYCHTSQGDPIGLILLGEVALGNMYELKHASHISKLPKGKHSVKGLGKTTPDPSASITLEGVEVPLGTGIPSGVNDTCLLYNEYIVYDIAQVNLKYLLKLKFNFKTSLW

target: PARP-1 enzyme (Cricetulus griseus (Chinese hamster) (Cricetulus barabensis griseus), UniProt Q9R152); experiment: Intracellular PARP inhibitory activity (NAD(P)H released by MMS-treated CHO-K1 cells); type: cell-based

Question: `COc1ccc2[nH]c(=O)c3c(c2c1)NCCC3` [Example 3, 9-Methoxy-1,2,3,4-tetrahydrobenzo[h][1,6]naphthyridine-5(6H)-one hydrochloride] was tested. Which IC50 did it give?
Answer: The IC50 was 0.87 µM.

Question: `O=c1[nH]c2ccc(OCCc3ccccc3)cc2c2c1CCCN2` [Example 25, 9-Penethoxy-1,2,3,4-tetrahydrobenzo[h][1,6]naphthyridine-5(6H)-one dihydrochloride] was tested. Which IC50 did it give?
Answer: The IC50 was 3.18 µM.

Question: How did the IC50 turn out when `CNC(C)c1ccc2c3c(c(=O)[nH]c2c1)CCCN3` (centres unmarked) [Example 39, 8-[1-(Methylamino)ethyl]-1,2,3,4-tetrahydrobenzo[h][1,6]naphthyridine-5(6H)-one dihydrochloride] was run?
Answer: The IC50 was 1.56 µM.

Question: With `CC(C)NCc1ccc2c3c(c(=O)[nH]c2c1)CCCN3` [Example 45, 8-[(Isopropylamino)methyl]-1,2,3,4-tetrahydrobenzo[h][1,6]naphthyridine-5(6H)-one dihydrochloride] as the compound, how does the IC50 read?
Answer: The IC50 was 1.16 µM.

Question: `O=c1[nH]c2cc(CN3CCOCC3)ccc2c2c1CCCN2` [Example 49, 8-(Morpholinomethyl)-1,2,3,4-tetrahydrobenzo[h][1,6]naphthyridine-5(6H)-one dihydrochloride] was tested. Which IC50 did it give?
Answer: The IC50 was 0.51 µM.

Question: `CNCc1ccc2c3c(c(=O)[nH]c2c1)CCCN3` [Example 52, 8-[(Methylamino)methyl]-1,2,3,4-tetrahydrobenzo[h][1,6]naphthyridine-5(6H)-one dihydrochloride] was tested. Which IC50 did it give?
Answer: Its IC50 is 0.17 µM.

Question: How did the IC50 turn out when `COc1cc(CN2CCCC2)cc2[nH]c(=O)c3c(c12)NCCC3` [Example 77, 10-Methoxy-8-(pyrrolidine-1-ylmethyl)-1,2,3,4-tetrahydrobenzo[h][1,6]naphthyridine-5(6H)-one dihydrochloride] was run?
Answer: The IC50 was 0.82 µM.

Question: Which IC50 does the source give for `COc1cc(CNC(C)C)cc2[nH]c(=O)c3c(c12)NCCC3` [Example 88, 8-[(Isopropylamino)methyl]-10-methoxy-1,2,3,4-tetrahydrobenzo[h][1,6]naphthyridine-5 (6H)-one dihydrochloride] here?
Answer: The IC50 was 0.27 µM.

Question: How did the IC50 turn out when `CCOc1cc(CN2CCCCC2)cc2[nH]c(=O)c3c(c12)NCCC3` [Example 102, 10-Ethoxy-8-(piperidine-1-ylmethyl)-1,2,3,4-tetrahydrobenzo[h][1,6]naphthyridine-5(6H)-one dihydrochloride] was run?
Answer: The IC50 was 0.5 µM.

Question: `COc1cc(CO)cc2[nH]c(=O)c3c(c12)NCCC3` [Example 105, 8-(Hydroxymethyl)-10-methoxy-1,2,3,4-tetrahydrobenzo[h][1,6]naphthyridine-5(6H)-one hydrochloride] was tested. Which IC50 did it give?
Answer: Its IC50 is 1.21 µM.

Question: With `COc1cc(CNCCN2CCOCC2)cc2[nH]c(=O)c3c(c12)NCCC3` [Example 107, 10-Methoxy-8-[(2-morpholinoethylamino)methyl)-1,2,3,4-tetrahydrobenzo[h][1,6]naphthyridine-5(6H)-one trihydrochloride] as the compound, how does the IC50 read?
Answer: The IC50 was 2.22 µM.

Question: `NCc1ccc2c3c(c(=O)[nH]c2c1)CCCN3` [Example 112, 8-(Aminomethyl)-1,2,3,4-tetrahydrobenzo[h][1,6]naphthyridine-5 (6H)-one dihydrochloride] was tested. Which IC50 did it give?
Answer: Its IC50 is 2.65 µM.

Question: For `COc1cc(CN(C)C2CCOCC2)cc2[nH]c(=O)c3c(c12)NCCC3` [Example 115, 10-Methoxy-8-{[methyl(tetrahydro-2H-pyran-4-yl)amino]methyl}-1,2,3,4-tetrahydrobenzo[h][1,6]naphthyridine-5(6H)-one dihydrochloride], which IC50 is on record?
Answer: The IC50 was 1.22 µM.

Question: Which IC50 does the source give for `COCCOc1cc(CN(C)C)cc2[nH]c(=O)c3c(c12)NCCC3` [Example 116, 8-[(Dimethylamino)methyl]-10-(2-methoxyetoxy)-1,2,3,4-tetrahydrobenzo[h][1,6]naphthyridine-5(6H)-one dihydrochloride] here?
Answer: The IC50 was 0.52 µM.
